Results from patent publication US20230181729A1 (published 2023).

Target: T1, PRAME (PRAME-004) peptide on HLA-A*02:01 (human)
T1 peptide: SLLQHLIGL
Test: cytokine release

binding result: recognises
B1: R17P1G3 (TCR, V domains shown)
Valpha: QKEVEQNSGPLSVPEGAIASLNCTYSDRGSQSFFWYRQYSGKSPELIMSIYSNGDKEDGRFTAQLNKASQYVSLLIRDSQPSDSATYLCAVGPSGTYKYIFGTGTRLKVLA
Vbeta: EAQVTQNPRYLITVTGKKLTVTCSQNMNHEYMSWYRQDPGLGLRQIYYSMNVEVTDKGDVPEGYKVSRKEKRNFPLILESPSPNQTSLYFCASSPGGSGNEQFFGPGTRLTVL
